ChEMBL document CHEMBL1127634, “Calculation of relative differences in the binding free energies of HIV1 protease inhibitors: a thermodynamic cycle perturbation approach” (J Med Chem, 1994)

Target: Human immunodeficiency virus type 1 protease (Human immunodeficiency virus 1, UniProt Q72874)
Experiment: Binding affinity against HIV -1 protease

## C[C@H](N)C(=O)N[C@@H](C)C(=O)N[C@@H](Cc1ccccc1)[C@@H](O)CCC(=O)NC(c1ccccc1)c1ccccc1
  Ki: 1.67 µM
